scFv variants of Ab-14 (heavy chain) against a SARS-CoV-2 spike peptide

All variants were tested on one target, the spike HR2 peptide PDVDLGDISGINAS (SARS-CoV-2).

The variants keep the light chain, the linker and the frameworks of Ab-14 (scFv order VH, a (GGGGS)3 linker, VL).
VH: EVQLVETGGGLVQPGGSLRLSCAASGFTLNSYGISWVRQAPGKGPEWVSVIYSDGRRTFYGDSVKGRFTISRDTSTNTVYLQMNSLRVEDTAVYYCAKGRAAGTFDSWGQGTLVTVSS
VL: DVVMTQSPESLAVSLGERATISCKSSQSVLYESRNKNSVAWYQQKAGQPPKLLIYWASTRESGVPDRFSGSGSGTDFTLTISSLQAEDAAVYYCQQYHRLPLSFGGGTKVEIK

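These sequences belong to a second round, designed from the earlier measurements on random variants of the parent. Group labels follow the data file (Ctrl: baseline library sampled from a position-specific scoring matrix, with some repeated check sequences; Rand: our label for a block that the file lists under HC and that is probably the random mutants of the ten best first-round binders; En: ensemble of fine-tuned language models; GP: Gaussian process model; GPLM: also part of the Gaussian process libraries; HC: hill climbing; Gen: genetic algorithm; Gibbs: Gibbs sampling; a sequence that several methods proposed may carry one label only). Affinity was read by AlphaSeq, a pooled yeast mating assay with surface-displayed partners. Pairs that bind mate more often; barcode pairs of the diploids are counted by sequencing. A regression on co-assayed BCL2-family reference pairs converts the normalised counts of each replicate to an apparent Kd. Mating was done six times.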

Each variant is given by its three heavy chain CDRs, as the data file delimits them; those of the parent are GFTLNSYGIS, VIYSDGRRTFYGDSVK, GRAAGTFDS.
The read-out is the apparent dissociation constant on a log10 scale (nM): the lower, the stronger.
Replicates are averaged; those with no signal do not enter the mean.
A pair that was not seen in any replicate is written "not detected"; this usually means weak binding, but a binder can also be missed.
The authors' rule: three or more of the six replicates give a measured affinity, fewer mean a poor binder.
Values of this round are not directly comparable with the first-round values of the same sequences.
The parent sequence was in this pool as ten entries: three were never detected, three once, and four in most replicates, with averages from 0.34 to 2.37.
Nonspecific signal, from three strains lacking the peptide, appeared in 1% of pairings of all heavy chain designs, centred on 2.08 (5% of these signals below 0.84); values are not corrected for it.

CDR-H1,CDR-H2,CDR-H3,group,"mean, log10 nM",replicates with signal
GFDLDEYGIS,VIYADGQRTAYIDSVK,GNVAGTFDL,En_Gen,-0.11,6/6
GFDLNSYGIS,VIYSDGRRTFYRDAVK,GKTAGTFDS,GP_Gibbs,not detected,0/6
GFTLNSYGIS,VIYSDGRRTFYGDQVK,GREAGTFDT,GP_Gen,0.82,6/6
GFDLNEYGIS,VIYADGLRTFYTDNVK,GELAGTFDV,En_HC,-1.07,6/6
GNSLNSYGIS,VIYSDGRRTFYKDSVK,GQAAGTFDM,Ctrl,1.80,3/6
GFDLNEYGIS,VIYADGSRTVYADSVK,GNNAGTFDI,En_Gen,0.03,6/6
GFSLNEYGIS,VIYSDGRRTFYCDSVK,GKAAGTFDS,GPLM_Gen,0.38,6/6
GFTLNEYGIS,VIYSDGRRTFQGDSAK,GRAAVTFDQ,Rand,not detected,0/6
GFDLNEYGIS,VIYADGMRSAYADSVK,GNVAGTFDL,En_Gen,-0.30,6/6
GFDLDEYGIS,VIYADGRRTFYADSVK,GEIAGTFDI,En_HC,0.70,6/6
GDGLKEYGIS,VIYADGMRTSYVNDVK,GQKSGGFNL,En_Gibbs,not detected,0/6
GFTLNSYGIS,VIYSDGRRTFYGDSVR,GRASGTFDS,Ctrl,2.07,1/6
GFTLSSYGIS,VIYSDGRRTFYADSVA,GRAAGTFDS,Ctrl,0.97,4/6
GFDLNEYGIS,VIYADGVRTAYTDSVK,GNNAGTFDM,En_Gen,-0.27,6/6
GFDLNEYGIS,VIYADGMRTQYADSVK,GEVAGTFDV,En_Gen,not detected,0/6
GFDLNEYGIS,VIYADGQRTAYADSVK,GKAAGTFDI,En_HC,-0.17,6/6
GFNLNMYGIS,VIYSDGRRTFYGDSVK,GQAAGTFDS,Ctrl,1.25,6/6
GFTLNDYGIS,VIYSDGRRTFYKDSVK,GRAAGTFDS,GPLM_HC,1.01,6/6
GFDLTEYGIS,VIYADGRRTEYDNDVK,GQVAGIFLD,En_Gibbs,not detected,0/6
GQDLSEYGIS,VIYADGVRRSYAESVK,GNTSGNFSS,En_Gibbs,not detected,0/6
GFNLDEYGIS,VIYADGHRTQYHQSVK,GMNNGYIAG,En_Gibbs,not detected,0/6
GFDLNSYGIS,VIYSDGMRTFYVDSVK,GRTAGTFDS,GP_Gen,0.50,6/6
GFDLAEYGVS,VIYADGKRTEYSDHVK,GENAGFNDL,En_Gibbs,not detected,0/6
GFDLNEYGIS,VIYADGRRTQYIDSVK,GEIAGTFDM,En_HC,-0.49,6/6
GFTLNEYGIS,VIYSDGRRTFYGDSVK,GRFAGTFDT,GPLM_HC,0.35,6/6
GFDLNEYGIS,VIYADGMRTAYADSVK,GEAAGTFDS,En_HC,-1.51,5/6
GFTLNSYGIS,VIYSDGRRTFYGDSVK,GRTAGTISS,Ctrl,not detected,0/6
GFDLKEQGIS,VIYADGMRTFYTDKVK,GQNSNGFKM,En_Gibbs,not detected,0/6
GFVLNQYGIS,VIYSDGRRTFYGDSVK,GRAAGTFDN,Ctrl,not detected,0/6

Further variants, results first:

"mean, log10 nM",replicates with signal,CDR-H1,CDR-H2,CDR-H3,group
-0.43,6/6,GFDLNEYGIS,VIYADGMRTAYADSVK,GNLAGTFDL,En_Gen
0.61,6/6,SFDLNSYGIS,VIYSDGKRTFYGDSVK,GRTAGTFDS,GP_Gen
0.00,6/6,GFALNSYGIS,VIYADGRRTFYGDSVK,GQAAGTFDS,GPLM_Gen
2.20,4/6,KFGLNEYGIS,VIYSDGRRTFYIDSVK,GRTAGTFDS,GP_Gibbs
not detected,0/6,GFDLNEYGIS,VIYADGRRTQYVQSVK,GKNNMVLSV,En_Gibbs
1.15,5/6,GFELNSYGIS,VIYSDGRRTFYGDQVK,GREAGTFDS,GP_Gibbs
not detected,0/6,GFTLNDYGIS,VIYSDGRRTFYGDSVK,GVAAGTFDW,Ctrl
0.21,6/6,GFTLNSYGIS,VIYSDGRRTFYSDSVK,GQAAGTFDL,GPLM_Gen
not detected,0/6,GFTLNDYGIS,VIYSDGRRQFYGDSVK,GRAALTFCS,Rand
not detected,0/6,GKSIEEYGIS,VIYADGQRNAYAETVK,GENGGVFSY,En_Gibbs
-0.65,6/6,GFDLNEYGIS,VIYADGRRTAYIDSVK,GHVAGTFDV,En_HC
1.93,6/6,GFTLNSYGIS,VIYSDGRRTFYGDEFK,GRAAGTFDS,Ctrl
-0.05,6/6,GFGLNEYGIS,VIYSDGRRTAYGDSVK,GRAAGTFDS,GP_Gen
-0.60,6/6,GFDLNEYGIS,VIYADGVRTFYSDSVK,GNVAGTFDV,En_Gen
0.49,4/6,GFTLNEYGIS,VIYSDGRRTFYIDSVK,GKAAGTFDS,GPLM_Gen
not detected,0/6,GFTLNMYGIS,VIYSDGRRTFYGDSVK,TRAAGTFDS,Ctrl
-0.37,6/6,GFDLDEYGIS,VIYADGVRTAYTDSVK,GNVAGTFDQ,En_Gen
0.09,6/6,GFLLNEYGIS,VIYSDGRRTFYADSVK,GRTAGTFDS,GPLM_Gen
0.74,1/6,GFQLNSYGIS,VIYSDGRRTFYGDSVK,GVAAGTFDS,GP_HC
not detected,0/6,GFSLDEYGIS,VIYADGQRKSYADNVK,GYQGSRVSL,En_Gibbs
0.99,1/6,GFTLNSYGIS,VIYSDGRRTFYSDSVK,GQTAGTFDS,GPLM_Gen
1.68,6/6,GFTLNSYGIS,VIYSDGRRTFYGDSVK,GELAGTFDS,Ctrl
0.93,6/6,GFTLNEYGIS,VIYSDGRRTFYTDSIK,GRFAGTFDS,Rand
0.25,6/6,GFSLNEYGIS,VIYSDGQRTFYVDSVK,GRTAGTFDS,GP_Gibbs
0.38,6/6,GFTLNSYGIS,VIYADGRRTFYGDSVK,GQAAGTFDQ,GPLM_Gen
0.57,6/6,GFDLNEYGIS,VIYADGMRTAYADSVK,GNTAGTFDI,En_Gen
not detected,0/6,GFGLDEYGIS,VIYADGFRAYYHDNVK,GFNGGVDIL,En_Gibbs
not detected,0/6,GFWLNDYGIS,VIYSDGRRTLYIDSVK,GRAAGTFDS,GP_HC
0.51,6/6,GFDIEEYGIS,VIYADGVRKAYQNSFK,GEVGGTFTN,En_Gibbs
0.94,6/6,GFTLNSYGIS,VIYSDGRRTFYSDSVK,GSAAGTFDL,GPLM_Gen

The closing 5 entries, repeated:

CDR-H1,CDR-H2,CDR-H3,group,"mean, log10 nM",replicates with signal
GFDLNEYGIS,VIYADGMRTAYADSVK,GNTAGTFDI,En_Gen,0.57,6/6
GFGLDEYGIS,VIYADGFRAYYHDNVK,GFNGGVDIL,En_Gibbs,not detected,0/6
GFWLNDYGIS,VIYSDGRRTLYIDSVK,GRAAGTFDS,GP_HC,not detected,0/6
GFDIEEYGIS,VIYADGVRKAYQNSFK,GEVGGTFTN,En_Gibbs,0.51,6/6
GFTLNSYGIS,VIYSDGRRTFYSDSVK,GSAAGTFDL,GPLM_Gen,0.94,6/6

Reference: Li et al. 2023, doi:10.1038/s41467-023-39022-2. File: FLAb, binding data.